Consider one compound from patent US7429578B2, “Tricyclic inhibitors of poly(ADP-ribose) polymerases” (Agouron Pharmaceuticals, Inc., priority 1999, dated 2008).

Chains of the proteins cited; added tags and fusions are not shown.
UniProt P09874, whole entry: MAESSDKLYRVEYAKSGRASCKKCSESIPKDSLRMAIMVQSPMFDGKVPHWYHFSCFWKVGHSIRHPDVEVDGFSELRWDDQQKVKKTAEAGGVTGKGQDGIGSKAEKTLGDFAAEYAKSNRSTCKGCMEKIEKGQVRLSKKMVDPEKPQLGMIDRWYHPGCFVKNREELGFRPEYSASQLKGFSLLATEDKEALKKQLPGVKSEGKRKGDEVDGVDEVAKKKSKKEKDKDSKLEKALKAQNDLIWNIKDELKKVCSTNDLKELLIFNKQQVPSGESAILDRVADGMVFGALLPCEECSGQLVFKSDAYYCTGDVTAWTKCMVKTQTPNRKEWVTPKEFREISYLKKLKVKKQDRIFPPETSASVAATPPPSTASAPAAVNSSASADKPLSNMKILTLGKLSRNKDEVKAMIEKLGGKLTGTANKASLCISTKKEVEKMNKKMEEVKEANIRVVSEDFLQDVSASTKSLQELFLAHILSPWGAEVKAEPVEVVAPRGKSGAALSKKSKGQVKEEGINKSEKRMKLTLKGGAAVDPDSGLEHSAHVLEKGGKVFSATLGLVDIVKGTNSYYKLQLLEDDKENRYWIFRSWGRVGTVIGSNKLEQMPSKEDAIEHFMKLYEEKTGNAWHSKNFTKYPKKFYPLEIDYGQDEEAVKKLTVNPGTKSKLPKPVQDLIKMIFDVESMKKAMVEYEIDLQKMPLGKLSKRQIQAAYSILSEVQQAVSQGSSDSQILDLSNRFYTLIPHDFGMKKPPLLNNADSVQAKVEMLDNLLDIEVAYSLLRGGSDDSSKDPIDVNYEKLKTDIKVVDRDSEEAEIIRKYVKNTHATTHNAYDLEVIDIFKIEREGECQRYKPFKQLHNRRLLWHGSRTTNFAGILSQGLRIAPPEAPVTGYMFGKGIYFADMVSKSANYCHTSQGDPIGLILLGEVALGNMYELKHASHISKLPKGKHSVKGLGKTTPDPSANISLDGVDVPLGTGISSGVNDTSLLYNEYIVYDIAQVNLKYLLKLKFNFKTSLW

This assay deals with purified PARP protein (Homo sapiens, UniProt P09874). Description: PARP enzyme inhibition assay. Conditions: read-out: Inhibition Constant Ki. In kind it is biochemical.

As to `S=C1NCCc2c(-c3ccccc3)[nH]c3cccc1c23` [Compound 24, 2-Phenyl-1,3,4,5-tetrahydro-azepino[5,4,3-cd]indole-6-thione], the Ki was found to be 57 nM.
